Literature values as cited in patent US10925981B2, “Hexa-lactoside-triazanonane triacetic acid (NOTA) derivative, method for radiolabeling hexa-lactoside positron emission tomography (PET) imaging agent for liver receptor with Ga-68, and hexa-lactoside PET imaging agent for liver receptor” (Institute of Nuclear Energy Research, Atomic Energy …, priority 2018, dated 2021).

Tc-99m diethylenetriamine pentaacetic acid-galactosamine-albumin [Tc-99m DTPA-GSA]
time the labeled product remains stable in serum: ≥ 4 h
